One data set deals with CYP2B1/2B2. The following applies: rat liver microsomes+cytosol, PB 100 mg/kg/day for 3 days, 500 μg/ml IgG spots, Flag-normalized. (Microsomes from liver hold many membrane-bound enzymes, among them those of drug oxidation.)
In a further data set the test system is CYP3A (CYP3A1/2/23). Conditions: rat liver microsomes+cytosol, PB 100 mg/kg/day for 3 days.
The subject of a further data set is Calpain. The following applies: rat liver microsomes+cytosol, PB 100 mg/kg/day for 3 days.
The next data set concerns CYP2D. Conditions: rat liver microsomes+cytosol, PB 100 mg/kg/day for 3 days, 500 μg/ml IgG spots.
Where [1] appears, read: 50 μg/ml IgG spots (anti-serum).

Structures are written as SMILES. Where “and” joins values, the source holds several entries; their conditions need not be identical. Identical values can stand only once. Like-named read-outs stand apart in the source and are kept apart here.

For the compound `CCC1(c2ccccc2)C(=O)NC(=O)NC1=O` [phenobarbital], the “Fold-Change of Protein Expression Level after PB treatment, CYP2B1/2B2” value in the data set on CYP2B1/2B2 was 9.7 fold; with CYP2B1/2B2 (listed as PB), 9.7 fold and 9.70^a fold. Besides, the “Fold-Change of Protein Expression Level after PB treatment, CYP3A” value is 2.6 fold in the data set with CYP3A (CYP3A1/2/23) (setting [1]); 2.1 fold in the data set with CYP3A (CYP3A1/2/23) (500 μg/ml IgG spots (anti-serum)); 2.1 fold and 2.10 fold with CYP3A (CYP3A1/2/23) (500 μg/ml IgG spots (anti-serum), listed as PB). In addition, the “Fold-Change of Protein Expression Level after PB treatment, Calpain” value with Calpain (5 μg/ml IgG spots (anti-serum)) and with Calpain (setting [1]) was 2.5 fold in each case. In addition, the “Fold-Change of Protein Expression Level after PB treatment, CYP2D” value with CYP2D was 2.1 fold; in the data set on CYP2D (listed as PB), 2.1 fold and 2.10 fold.

(Values after patent US8765641B2, “Chip production, hybridization and data interpretation for antibody and protein microarrays” (Detroit R&D, Inc., priority 2004, dated 2014).)
